# Yeast mating assay 2: variants of the scFv Ab-95

Data: MIT Lincoln Laboratory AlphaSeq set, Engelhart et al. 2022, doi:10.1038/s41597-022-01779-4, as distributed in FLAb.

All variants were tested on one target, the spike HR2 peptide PDVDLGDISGINAS (SARS-CoV-2).

Ab-95 is the parent antibody, in scFv form: VH, then a (GGGGS)3 linker, then VL. The heavy chain is unchanged in all variants.
VH: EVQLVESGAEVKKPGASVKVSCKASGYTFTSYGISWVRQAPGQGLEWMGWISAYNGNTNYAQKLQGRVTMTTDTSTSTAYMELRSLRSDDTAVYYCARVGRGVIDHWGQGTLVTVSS
VL: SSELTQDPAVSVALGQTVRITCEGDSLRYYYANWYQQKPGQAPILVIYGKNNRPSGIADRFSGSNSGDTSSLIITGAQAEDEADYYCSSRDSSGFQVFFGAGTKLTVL

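The parent was found by panning a naive human phage display library on the peptide. Variants in AAYL52 differ from the parent at up to three CDR positions; double and triple changes were sampled at random. The assay is AlphaSeq: two haploid yeast populations carry antibody and antigen on their surface. Binding brings cells together so that they mate, and sequencing counts the barcode pairs among the diploids. Each replicate has its own calibration line, from reference interactions of the BCL2 family. There are three technical replicates.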

The whole VL of each variant is written out.
This list gathers variants with a substitution at A32 (VL, numbered from residue 1).
The read-out is the apparent dissociation constant on a log10 scale (nM): the lower, the stronger.
Averages over replicates are reported, and they cover detected replicates only.
"nd" means that the variant was in the library but no mating with the target was seen in any replicate; the authors take this as a sign of poor binding, and no number exists.
The list is sorted by this average, lowest first, undetected variants last.

VL,"log10 Kd (nM), mean",seen in,control signals
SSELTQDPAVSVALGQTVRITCEGDSLRYYYPNWYQQKPGQAPILVIYGKNNRPVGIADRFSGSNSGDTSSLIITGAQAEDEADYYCSSRFSSGFQVFFGAGTKLTVL,1.01,3/3,4/9
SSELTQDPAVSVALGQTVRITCEGDSLRYYYPNWYQQKPGQAPILVIYGKNNRPSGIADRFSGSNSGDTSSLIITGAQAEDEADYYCSSRDSSGFHVFFGAGTKLTVL,1.67,3/3,5/9
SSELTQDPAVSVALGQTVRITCEGDSLRYYYTNWYQQKPGQAPILVIYGKNNRPSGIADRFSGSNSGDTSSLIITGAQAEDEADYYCSRRDSSGKQVFFGAGTKLTVL,2.24,3/3,0/9
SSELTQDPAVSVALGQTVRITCEGDSLRYAYPNWYQQKPGQAPILVIYGKNNRPSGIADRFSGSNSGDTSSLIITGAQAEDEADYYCSSRDSSGIQVFFGAGTKLTVL,2.72,3/3,3/9
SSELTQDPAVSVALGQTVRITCTGDSLRYYYNNWYQQKPGQAPILVIYGKNNRPSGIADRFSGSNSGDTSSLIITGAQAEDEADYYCSSKDSSGFQVFFGAGTKLTVL,2.85,3/3,2/9
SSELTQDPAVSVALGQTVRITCEGDSLRYYYFNWYQQKPGQAPILVIYGKSNRPSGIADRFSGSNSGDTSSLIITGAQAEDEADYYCSSRDSAGFQVFFGAGTKLTVL,2.87,3/3,5/9
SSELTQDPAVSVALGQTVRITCEGDSLRYYYVNWYQQKPGQAPILVIYGHNNRPSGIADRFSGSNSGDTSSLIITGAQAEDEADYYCASRDSSGFQVFFGAGTKLTVL,2.89,3/3,0/9
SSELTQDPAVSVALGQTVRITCEGDSLRYYYQNWYQQKPGQAPILVIYGKNNRPSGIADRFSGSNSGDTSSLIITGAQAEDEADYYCSSRDSNGFQVRFGAGTKLTVL,2.97,3/3,1/9
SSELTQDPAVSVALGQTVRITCEGDSLRYYYHNWYQQKPGQAPILVIYGKNNRKVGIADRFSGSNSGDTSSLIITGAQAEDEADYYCSSRDSSGFQVFFGAGTKLTVL,3.06,1/3,4/9
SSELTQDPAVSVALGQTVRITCEGDSLRYYYTNWYQQKPGQAPILVIYGKNNRCSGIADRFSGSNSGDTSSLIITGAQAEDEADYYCSSRDSSGDQVFFGAGTKLTVL,3.26,3/3,3/9
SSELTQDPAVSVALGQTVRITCEGDQLRYYYRNWYQQKPGQAPILVIYGKNNRPSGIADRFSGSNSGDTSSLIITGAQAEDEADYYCSSRDSSGFQVFFGAGTKLTVL,3.30,3/3,4/9
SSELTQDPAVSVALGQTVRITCEGDSLRYYYFSWYQQKPGQAPILVIYGKNNRPSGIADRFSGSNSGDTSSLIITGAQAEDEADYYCYSRDSSGFQVFFGAGTKLTVL,3.31,1/3,4/9
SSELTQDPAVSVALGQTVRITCEGDSLRYYYINWYQQKPGQAPILVIYPKNNRPSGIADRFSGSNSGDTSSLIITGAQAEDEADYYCSSRDSSGFQVNFGAGTKLTVL,3.39,1/3,1/9
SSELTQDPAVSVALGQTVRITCEGDSLRYYYRNWYQQKPGQAPILVIYGQNNRPSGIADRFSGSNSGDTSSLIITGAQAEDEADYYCSSRDRSGFQVFFGAGTKLTVL,3.55,3/3,2/9
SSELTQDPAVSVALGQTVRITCEGDSLRYYYSNWYQQKPGQAPILVIYGKNNRWSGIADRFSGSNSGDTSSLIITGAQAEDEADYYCSSRDSSGFCVFFGAGTKLTVL,3.55,3/3,4/9
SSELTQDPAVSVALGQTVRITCEGDCLRYYYLNWYQQKPGQAPILVIYGKNNRPSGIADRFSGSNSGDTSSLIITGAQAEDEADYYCSTRDSSGFQVFFGAGTKLTVL,3.62,3/3,2/9
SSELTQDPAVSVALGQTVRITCEGDSLRGYYWNWYQQKPGQAPILVIYGKNNRPKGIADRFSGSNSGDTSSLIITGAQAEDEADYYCSSRDSSGFQVFFGAGTKLTVL,3.78,1/3,4/9
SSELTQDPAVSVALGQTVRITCEGDSLRYYYKNWYQQKPGQAPILVIYGKNNRDSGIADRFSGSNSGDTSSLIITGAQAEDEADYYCSSRDSSGFQVEFGAGTKLTVL,3.89,3/3,1/9
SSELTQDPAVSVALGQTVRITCEGDSLRYYYVNWYQQKPGQAPILVIYGKNNRPSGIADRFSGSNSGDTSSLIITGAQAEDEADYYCRSRDSSGFQVFFGAGTKLTVL,3.96,2/3,1/9
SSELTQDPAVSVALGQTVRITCEGDSLRYYYNNWYQQKPGQAPILVIYGKNNRPSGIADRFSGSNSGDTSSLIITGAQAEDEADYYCQSRDSSGFKVFFGAGTKLTVL,4.10,3/3,2/9
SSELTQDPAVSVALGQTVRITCEGDSLFYYYTEWYQQKPGQAPILVIYGKNNRPSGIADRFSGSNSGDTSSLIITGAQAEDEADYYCSSRDSSGFQVFFGAGTKLTVL,4.14,1/3,2/9
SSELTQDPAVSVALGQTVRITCEGDSLRYYYENWYQQKPGQAPILVIYGKQNRPWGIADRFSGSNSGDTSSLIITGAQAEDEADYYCSSRDSSGFQVFFGAGTKLTVL,4.51,2/3,3/9
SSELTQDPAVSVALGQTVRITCEGDSLRYYYFNWYQQKPGQAPILVIYGKNNRPSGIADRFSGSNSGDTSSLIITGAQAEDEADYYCSSRDSSGFQVFFGAGTKLTVL,4.83,1/3,2/9
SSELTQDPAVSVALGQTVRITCEGDYLRYYYQNWYQQKPGQAPILVIYGKNNRPSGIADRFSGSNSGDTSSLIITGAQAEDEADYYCTSRDSSGFQVFFGAGTKLTVL,5.09,1/3,2/9
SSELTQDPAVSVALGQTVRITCEGDSLRYYYHNWYQQKPGQAPILVIYGKNNRPSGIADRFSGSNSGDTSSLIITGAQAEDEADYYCSSRDLSGFQNFFGAGTKLTVL,5.64,1/3,5/9
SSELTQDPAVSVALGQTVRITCEGDPLRYYYGNWYQQKPGQAPILVIYAKNNRPSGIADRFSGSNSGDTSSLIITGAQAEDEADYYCSSRDSSGFQVFFGAGTKLTVL,nd,0/3,1/9

The 3 strongest on average among those seen in every replicate, once more:

VL,"log10 Kd (nM), mean",seen in,control signals
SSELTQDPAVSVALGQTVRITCEGDSLRYYYPNWYQQKPGQAPILVIYGKNNRPVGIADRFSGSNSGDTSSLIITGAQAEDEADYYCSSRFSSGFQVFFGAGTKLTVL,1.01,3/3,4/9
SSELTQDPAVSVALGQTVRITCEGDSLRYYYPNWYQQKPGQAPILVIYGKNNRPSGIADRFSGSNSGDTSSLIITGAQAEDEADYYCSSRDSSGFHVFFGAGTKLTVL,1.67,3/3,5/9
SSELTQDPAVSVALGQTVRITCEGDSLRYYYTNWYQQKPGQAPILVIYGKNNRPSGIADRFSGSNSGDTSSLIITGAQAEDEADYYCSRRDSSGKQVFFGAGTKLTVL,2.24,3/3,0/9

In this assay the parent's reference entry averaged 2.31; its copy inside this library read 2.25.
Nonspecific signal, from three strains lacking the peptide, appeared in 28% of pairings of library AAYL52, centred on 3.91 (5% of these signals below 2.90); values are not corrected for it. Also given: how often the same scFv was detected with the empty control strains.